One assay has as its system MDA-MB-468 cells. Kind of assay: Cell viability assay (CellTiter-Glo), MDA-MB-468. To be noted: MDA-MB-468 (cancer), 48 h, 37 °C, n = 3. For orientation: In ATP-based viability assays light output follows the ATP content of the culture.
For assay [1], the system named is MDA-MB-468 xenograft tumors. The assay is described as follows: In vivo efficacy in MDA-MB-468 xenograft model. The note with it: 5 mg/kg IP, 8 weeks; IR = [1 – (mean treated/mean control tumor volume)] × 100.

pIC50: −log10 of the molar value.

On to `Cc1cc(N(CCCl)CCCl)ccc1B(O)O`, for which the pIC50 (in general, −log10 of the IC50, conventionally taken in molar units) in the assay on MDA-MB-468 cells was 5.47. Moreover, the “tumor growth inhibition rate (IR)” value in assay [1] is 91%.

The values above are taken from PMC12703749, “H2O2–Responsive Anticancer Prodrug: Synthesis, Precision Deuteration in Search of In Vivo Metabolites, and Activation Pathway” (Journal of Medicinal Chemistry, 2025).
